The term IC50 denotes the midpoint of a concentration-inhibition curve. Low values mean inhibition by little substance, high ones a need for much substance.

By UniProt entry, the sequences of proteins in these tests, tags left out. Where a name states a change or a piece, a line headed by the entry shows the natural chain unless it says otherwise.
UniProt P08492: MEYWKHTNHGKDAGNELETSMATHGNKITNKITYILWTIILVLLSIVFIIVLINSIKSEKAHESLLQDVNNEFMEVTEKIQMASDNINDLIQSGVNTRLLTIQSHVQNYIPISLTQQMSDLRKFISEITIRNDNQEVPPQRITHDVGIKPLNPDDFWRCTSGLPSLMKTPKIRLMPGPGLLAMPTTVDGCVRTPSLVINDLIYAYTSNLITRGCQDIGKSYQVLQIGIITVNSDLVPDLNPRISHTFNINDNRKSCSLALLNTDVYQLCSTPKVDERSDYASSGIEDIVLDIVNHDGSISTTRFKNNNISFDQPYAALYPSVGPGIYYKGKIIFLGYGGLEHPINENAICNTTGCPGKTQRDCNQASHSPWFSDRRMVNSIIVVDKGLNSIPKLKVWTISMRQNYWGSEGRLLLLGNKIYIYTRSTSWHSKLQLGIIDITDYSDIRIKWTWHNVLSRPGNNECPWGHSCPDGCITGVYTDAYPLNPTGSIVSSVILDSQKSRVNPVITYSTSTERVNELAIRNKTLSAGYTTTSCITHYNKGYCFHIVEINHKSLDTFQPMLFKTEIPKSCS

Our source for the IC50 values is paper PMC5495814, “The impact of the butterfly effect on human parainfluenza virus haemagglutinin-neuraminidase inhibitor design” (Scientific Reports, 2017).

Where “and” joins values, the source holds several entries; their conditions need not be identical. Identical values can stand only once.

For assay [1], the target named is hPIV-3 HN neuraminidase function (Human parainfluenza 3 virus, UniProt P08492). The assay can be described thus: biochemical. The conditions noted are these: NI IC50, purified hPIV-3, MUN substrate, pH 4.6; means of 3 independent experiments. Further details: species or system human parainfluenza virus type 3 (hPIV-3, strain C-243).
Assay [2] has as its target hPIV-3 HN haemagglutinin function (Human parainfluenza 3 virus, UniProt P08492). Kind of assay: cell-based. On the set-up: species or system human parainfluenza virus type 3 (hPIV-3). The conditions noted are these: HI IC50, human red blood cells, 4 °C, 90 min. On the procedure:
The HN inhibitors were assessed in haemagglutination inhibition assays using human red blood cells (RBC) as previously described[10] with minor modifications. The lowest final concentration of hPIV-3 that leads to a complete agglutination of human-RBC at 4 °C is considered as 1 HAU. 4 haemagglutination units (HAU) of hPIV-3 (final 1 HAU per well) were pre-mixed with inhibitors of each tested concentration (4X dilution in PBS) on ice. Next, an equivalent volume of ice-cold 1% human-RBC in PBS was added to each well of the inhibitor/virus pre-mixture and the plate was then incubated for 90 min at 4 °C before determining the extent of haemagglutination inhibition.

On to `CC(C)C(=O)N[C@H]1[C@H]([C@H](O)[C@H](O)CO)OC(C(=O)O)=C[C@@H]1n1cc(-c2ccccc2)nn1` [Inhibitor 5], for which the half-maximal inhibitory concentration (IC50) in assay [1] was 1400 nM and 1430 nM; in assay [2], 630 nM and 600 nM.
